According to ChEMBL document CHEMBL1130400, “Discovery of a novel, selective, and orally bioavailable class of thrombin inhibitors incorporating aminopyridyl moieties at the P1 position” (J Med Chem, 1997):

Biological target: Prothrombin (Homo sapiens, UniProt P00734)
Assay: In vitro inhibitory activity against human thrombin(IIa)

Ki: 3.9 nM
Structure (SMILES): Cc1cc(N)nc(C)c1CNC(=O)[C@@H]1CCCN1C(=O)[C@H](N)C(C1CCCCC1)C1CCCCC1
